# Permeability data for macrocyclic peptides

Data: CycPeptMPDB; original report Townsend et al. 2020, doi:10.26434/chemrxiv.13335941.v1.

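Lipid, pH, incubation time, direction and concentration are not recorded in the data file. The list need not hold all peptides of the study. Entries at the database's floor value (log10 P of -10) are not listed.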

PAMPA is the parallel artificial membrane permeability assay, which has no cells and reads passive diffusion.
Values are log10 P with P in cm/s, so -5 is more permeable than -7.

compound	PAMPA (log10 cm/s)
CC(C)C[C@H]1NC(=O)[C@H](CC(C)C)N(C)C(=O)[C@H](C)N(C)C(=O)[C@H](Cc2ccccc2)NC(=O)CN(Cc2ccccc2)C(=O)[C@@H]2CCCN2C1=O	-4.90
CC(C)C[C@@H]1NC(=O)[C@H](C)N(C)C(=O)[C@@H]2CCCN2C(=O)[C@H](Cc2ccccc2)NC(=O)[C@H](CC(C)C)N(C)C(=O)[C@@H]2CCCN2C(=O)[C@@H](CC(C)C)N(C)C1=O	-5.28
CC(C)C[C@@H]1C(=O)N(Cc2ccccc2)CC(=O)N2CCC[C@H]2C(=O)N(C)[C@@H](CC(C)C)C(=O)N[C@@H](Cc2ccccc2)C(=O)N2CCC[C@H]2C(=O)N(C)[C@@H](C)C(=O)N1C	-5.85
CC(C)C[C@@H]1NC(=O)[C@@H](C)N(C)C(=O)[C@@H]2CCCN2C(=O)[C@H](Cc2ccccc2)NC(=O)CN(Cc2ccccc2)C(=O)[C@H]2CCCN2C(=O)[C@H](CC(C)C)NC1=O	-5.95
CC(C)C[C@@H]1NC(=O)[C@@H](CC(C)C)N(C)C(=O)[C@H](C)N(C)C(=O)[C@H]2CCCN2C(=O)[C@H](Cc2ccccc2)NC(=O)[C@@H](CC(C)C)NC(=O)[C@@H]2CCCN2C1=O	-5.50
CC(C)C[C@@H]1NC(=O)C[C@H](Cc2ccccc2)NC(=O)[C@H]2CCCN2C(=O)[C@H](Cc2ccccc2)NC(=O)[C@@H](CC(C)C)NC(=O)[C@@H]2CCCN2C(=O)[C@@H](CC(C)C)NC1=O	-5.77
CC(C)C[C@@H]1C(=O)N(Cc2ccccc2)CC(=O)N2CCC[C@H]2C(=O)N[C@H](CC(C)C)C(=O)N[C@@H](Cc2ccccc2)C(=O)N(C)[C@@H](C)C(=O)N1C	-5.84
CC(C)C[C@@H]1C(=O)N2CCC[C@@H]2C(=O)N(Cc2ccccc2)CC(=O)N[C@@H](Cc2ccccc2)C(=O)N2CCC[C@H]2C(=O)N(C)[C@@H](C)C(=O)N(C)[C@H](CC(C)C)C(=O)N1C	-5.59
CC(C)C[C@@H]1NC(=O)[C@H](C)NC(=O)[C@@H]2CCCN2C(=O)[C@H](Cc2ccccc2)NC(=O)[C@H](CC(C)C)NC(=O)[C@@H]2CCCN2C(=O)[C@@H](CC(C)C)NC1=O	-6.08
CCCN1CC(=O)N(C)[C@H](CC(C)C)C(=O)N[C@@H](CC(C)C)C(=O)N2CCC[C@@H]2C(=O)N(C)[C@H](CC(C)C)C(=O)N[C@@H](Cc2ccccc2)C(=O)N2CCC[C@H]2C1=O	-5.20
CC(C)C[C@@H]1NC(=O)[C@@H](CC(C)C)NC(=O)[C@H](C)NC(=O)[C@H]2CCCN2C(=O)[C@H](Cc2ccccc2)NC(=O)CN(Cc2ccccc2)C(=O)[C@@H]2CCCN2C1=O	-6.68
CCCN1CC(=O)N(C)[C@H](CC(C)C)C(=O)N[C@@H](CC(C)C)C(=O)N2CCC[C@H]2C(=O)N(C)[C@@H](CC(C)C)C(=O)N[C@@H](Cc2ccccc2)C(=O)N2CCC[C@H]2C1=O	-5.14
CC(C)C[C@@H]1C(=O)N[C@H](CC(C)C)C(=O)N2CCC[C@H]2C(=O)N(C)[C@H](CC(C)C)C(=O)N[C@@H](Cc2ccccc2)C(=O)N2CCC[C@H]2C(=O)N(C)[C@H](C)C(=O)N1C	-5.13
CC(C)C[C@@H]1C(=O)N[C@@H](Cc2ccccc2)C(=O)N2CCC[C@H]2C(=O)N(C)[C@H](C)C(=O)N[C@H](CC(C)C)C(=O)N(Cc2ccccc2)CC(=O)N2CCC[C@@H]2C(=O)N1C	-5.94

Excerpt, the final 2 entries:

compound	PAMPA (log10 cm/s)
CC(C)C[C@@H]1C(=O)N[C@H](CC(C)C)C(=O)N2CCC[C@H]2C(=O)N(C)[C@H](CC(C)C)C(=O)N[C@@H](Cc2ccccc2)C(=O)N2CCC[C@H]2C(=O)N(C)[C@H](C)C(=O)N1C	-5.13
CC(C)C[C@@H]1C(=O)N[C@@H](Cc2ccccc2)C(=O)N2CCC[C@H]2C(=O)N(C)[C@H](C)C(=O)N[C@H](CC(C)C)C(=O)N(Cc2ccccc2)CC(=O)N2CCC[C@@H]2C(=O)N1C	-5.94